Broadly, the inhibition is the relative decrease from the control value, in per cent.

By UniProt entry, the sequences of proteins in these tests, tags left out.
UniProt Q9H0H5, whole entry: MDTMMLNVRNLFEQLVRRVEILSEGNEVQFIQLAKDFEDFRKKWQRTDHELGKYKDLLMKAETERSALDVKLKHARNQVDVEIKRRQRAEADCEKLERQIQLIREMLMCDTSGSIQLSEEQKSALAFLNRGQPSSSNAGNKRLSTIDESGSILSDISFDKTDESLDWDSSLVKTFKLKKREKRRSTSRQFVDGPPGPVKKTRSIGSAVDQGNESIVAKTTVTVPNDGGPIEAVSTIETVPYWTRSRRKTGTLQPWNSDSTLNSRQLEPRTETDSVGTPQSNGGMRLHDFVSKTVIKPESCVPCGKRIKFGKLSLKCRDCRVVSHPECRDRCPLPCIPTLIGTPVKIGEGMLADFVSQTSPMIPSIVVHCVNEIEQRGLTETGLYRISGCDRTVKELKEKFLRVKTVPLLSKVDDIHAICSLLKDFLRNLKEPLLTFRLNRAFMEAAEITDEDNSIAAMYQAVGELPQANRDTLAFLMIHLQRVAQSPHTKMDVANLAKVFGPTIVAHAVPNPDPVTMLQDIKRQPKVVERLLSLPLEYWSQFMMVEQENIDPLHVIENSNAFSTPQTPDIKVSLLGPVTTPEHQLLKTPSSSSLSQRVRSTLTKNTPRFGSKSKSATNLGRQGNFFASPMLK

The list shows a part of the results. Measured potencies and affinities stand elsewhere. Some structures show a salt or complex split into parts, the way the source records it. Activity calls are given as the source filed them.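 How the source made its calls: active means first-screen hits whose inhibition reached a set limit at any dose in the follow-up dose series; inconclusive means inhibition above the set first-screen limit but never retested; inactive means the rest.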

The source of these data is PubChem BioAssay AID624330 (Southern Research Specialized Biocontainment Screening …, 2012).

The target in this assay is Rac GTPase-activating protein 1 (Homo sapiens) (UniProt Q9H0H5). As to the kind of experiment: MgcRacGAP GTPase-activating activity inhibitors, confirmation, biochemical, ADP Hunter fluorescence, primary and confirmatory (AID 624330).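 Further: fluorescence reports GDP produced by GAP-driven GTP hydrolysis.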 The note with it: MgcRacGAP-stimulated Rac1 GTP hydrolysis, at 30 µM, stronger effect = higher value, GST-tagged Rac1 F28L mutant substrate.
As to `COc1ccccc1OP(C)(=O)Nc1ccc(Br)cc1` (configuration not stated), the inhibition was inactive: 9.26%.
With `COc1ccc(OP(C)(=O)Nc2ccccn2)cc1` (configuration not stated) the figure was inactive: 5.97%.
The same measure for `CN(C)CCOC(=O)C(O)(c1ccccc1)C1CCCC1` (configuration not stated): inactive: 3.89%; for `Cc1c(NP(C)(=O)Oc2ccc(C(C)C)cc2)c(=O)n(-c2ccccc2)n1C` (configuration not stated): inactive: 3.31%.
With `O=[N+]([O-])c1cc([N+](=O)[O-])c(Nc2ccccn2)c([N+](=O)[O-])c1` the figure was inactive: 6.3%.
Consider `CP(=O)(Nc1ccccn1)Oc1ccccc1` (configuration not stated), for which the inhibition was inactive: 4.04%.
In the case of `COc1ccccc1OP(C)(=O)Nc1ccc(C)cc1C` (configuration not stated), the inhibition was inactive: 4.63%.
The same measure for `CCc1ccc(OP(C)(=O)O)cc1`: inactive: 0.95%.
With `O=[N+]([O-])c1cc([N+](=O)[O-])c(Nc2ccc(Cl)cc2)c([N+](=O)[O-])c1` the figure was inactive: 7.66%; with `CP(=O)(Nc1ccccc1F)Oc1ccccc1` (configuration not stated), inactive: -0.11%.
Regarding `CC(C)c1ccc(OP(C)(=O)Nc2ccc(SC(F)(F)F)cc2)cc1` (configuration not stated), the inhibition was inactive: 4%.
The same measure for `O=C(OC1CN2CCC1CC2)c1ccc([N+](=O)[O-])cc1` (configuration not stated): inactive: -10.8%; for `O=C(OCCN1CCN(CCOCc2ccccc2)CC1)C(O)(c1ccccc1)c1ccccc1`: inactive: 0.86%; for `COc1ccc2c(c1O)-c1c(O)c(OC)cc3c1[C@H](C2)[N+](C)(C)CC3.O=[N+]([O-])c1cc([N+](=O)[O-])c([O-])c([N+](=O)[O-])c1[O-]`: inactive: 13.5%.
Take `CCOC(=O)c1ccc(NP(C)(=O)Oc2ccc(F)cc2)cc1` (configuration not stated): the inhibition is inactive: 3.72%.
The same measure for `COc1ccc(OP(C)(=O)Nc2ccc(SC(F)(F)F)cc2)cc1` (configuration not stated): inactive: 6.52%; for `Cc1c([N+](=O)[O-])cc([N+](=O)[O-])c(Br)c1[N+](=O)[O-]`: inactive: 5.34%; for `CCN(CC)CCCOC(=O)C(O)(c1ccccc1)C1CCCCC1` (configuration not stated): inactive: 1.48%.
As to `CP(=O)(Nc1ccccc1)Oc1ccc(F)cc1` (configuration not stated), the inhibition was inactive: 1.08%.
On to `CCCCCOc1ccc(NP(C)(=O)Oc2ccc(Cl)cc2Cl)cc1` (configuration not stated), for which the inhibition was inactive: 11.4%.
The same measure for `O=[N+]([O-])c1cc([N+](=O)[O-])c(OC2CCCCC2O)c([N+](=O)[O-])c1` (configuration not stated): inactive: 6.62%; for `COc1ccc(OP(C)(=O)Nc2cccc(Br)c2)cc1` (configuration not stated): inactive: 8.1%; for `CN(C)CCOC(=O)C(O)(c1ccccc1)C1CCCCC1` (configuration not stated): inactive: 10.5%.
With `COc1ccc(NP(C)(=O)Oc2ccccc2OC)cc1` (configuration not stated) the figure was inactive: 4.15%; with `O=[N+]([O-])c1ccc(OP2(=O)COCCO2)cc1` (configuration not stated), inactive: 8.83%.
With `Cc1cc(-c2cccc3ccccc23)c(C)cn1.O=[N+]([O-])c1cc([N+](=O)[O-])c(O)c([N+](=O)[O-])c1` the figure was inactive: 8.7%; with `O=[N+]([O-])c1cc([N+](=O)[O-])c(NCC2CCS(=O)(=O)C2)c([N+](=O)[O-])c1` (configuration not stated), inactive: 7.81%.
As for `Cc1c(C(c2ccc3c(c2)OCO3)c2c(C)n(C)n(-c3ccccc3)c2=O)c(=O)n(-c2ccccc2)n1C.O=[N+]([O-])c1cc([N+](=O)[O-])c(O)c([N+](=O)[O-])c1`, the inhibition is inactive: 1.21%.
With `CP(=O)(Nc1ccc(SC(F)(F)F)cc1)Oc1ccc(F)cc1` (configuration not stated) the figure was inactive: -2.88%; with `CCOP(C)(=S)SCC(=O)NC(C)(CC)C(=O)O` (configuration not stated), inactive: 4.91%.
With `CP(=O)(Nc1ccc2c(c1)OCCO2)Oc1ccccc1` (configuration not stated) the figure was inactive: 18%.
The same measure for `Cc1ccccc1NP(C)(=O)Nc1ccccc1C`: inactive: 4.01%.
